Target: α7GlyR chimeric channels with G175K and A298G mutations (Homo sapiens, UniProt Z9PBR2L694)
Conditions: read-out: Agonist potency

`c1cnc2cc3c(cc2n1)C1CNCC3C1` was tested, and the EC50 was greater than 30 µM.
